This passage reports inhibition results from PubChem BioAssay AID453 (PCMD, 2006).

Usually inhibition stands for the drop in the measured response relative to a control, in per cent.

Only a part is listed here, and it is no random draw. Activity calls are given as the source filed them. Cut-off read from the data, not from the text of the source: active = inhibition above about 21%; inactive = the rest.

This assay concerns the target Cathepsin B (Homo sapiens) (UniProt P07858). In words: blockers of cathepsin B proteolysis – biochemical, fluorogenic substrate, primary screen (AID 453).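 Note: 0% = enzyme with no compound and 100% = no enzyme blank.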 Particulars: purified cathepsin B, fluorescence, active compounds read high,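 tested at 10 µM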.
Consider `N/C(=N\O)c1c(N)no[n+]1[O-]`, for which the inhibition is inactive: -0.15%.

For `CCC(CO)(C(=O)OC1CN2CCC1CC2)c1ccccc1` (stereo not given), the inhibition was inactive: -0.8%.

In the case of `CCOc1ncccc1C(=O)NCC1(N2CCOCC2)CCCCC1`, the inhibition was inactive: 2.31%.

`O=C(OC1CN2CCC1CC2)C1c2ccccc2Oc2ccccc21` (stereo not given): the inhibition is inactive: -0.4%.

`N#CC1(Nc2ccccc2)CCN(CCc2ccccc2)CC1`: the inhibition is inactive: 4.25%.
